Laboratory results published in PubChem BioAssay AID588413 (Sanford-Burnham Center for Chemical Genomics, 2011).
The entries are a selection whose mix differs from that of the whole data set. Calls of active or inactive are those of the source.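 The calls were made as follows: active = inhibition above about 55% (limit read from the data); inactive = the rest.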

Assay: blockers of Gli reporter signaling – luciferase luminescence, Sufu-KO-LIGHT cells, uHTS, primary screen (AID 588413);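 also: 0% = DMSO-treated cells and 100% = wells with medium but no cells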
Conditions: Sufu-KO-LIGHT fibroblasts, at 5 µM, stronger effect = higher value

Q: For O=[As](O)(c1cccs1)c1cccs1, which inhibition is on record?
A: inactive: 4.14%

Q: For Nc1cccc([As](=O)(O)c2ccccc2)c1, which inhibition is on record?
A: inactive: -0.77%

Q: Which inhibition does the source give for CC1CCC(C(C)C)C(OP(=O)(Nc2ccccn2)c2ccccc2)C1 (centres undefined) here?
A: inactive: 4.45%

Q: With Cc1ccc(C(=O)OC2CN3CCC2CC3)cc1 (centres undefined) as the compound, how does the inhibition read?
A: inactive: 2.58%

Q: With Cc1nn(-c2ccccc2)c2c1P(=O)(N1CCOCC1)N(C)C(c1ccccc1)=N2 (centres undefined) as the compound, how does the inhibition read?
A: inactive: 6.49%

Q: For CCCC1OP(=O)(Nc2ccccc2)OCC1CC (centres undefined), which inhibition is on record?
A: inactive: -3.67%

Q: With O=C(/C=C/c1ccccc1)OC1CN2CCC1CC2 (centres undefined) as the compound, how does the inhibition read?
A: inactive: 24.5%

Q: With CN(C)C1(CNC(=O)c2ccc(S(C)(=O)=O)cc2)CCCCC1 as the compound, how does the inhibition read?
A: inactive: 5.03%

Q: With COc1ccccc1CNC(=O)COC(=O)C(O)(c1ccccc1)c1ccccc1 as the compound, how does the inhibition read?
A: inactive: -4.8%

Q: With CC1(CBr)Cn2c(nc3ccccc3c2=O)S1 (centres undefined) as the compound, how does the inhibition read?
A: inactive: -104%

Q: Which inhibition does the source give for CC(C)/C=N\N=C(\N)N[N+](=O)[O-] here?
A: inactive: -21.2%

Q: With CN(CCCl)Cc1cc(Cl)c(NC2=NCCN2)c(Cl)c1 as the compound, how does the inhibition read?
A: inactive: 9.33%

Q: With CCOP(=O)(Nc1ccc(C)cn1)OCC as the compound, how does the inhibition read?
A: inactive: -5.53%

Q: With CCOP(=O)(NC(=NC(C)c1ccccc1)NC(C)c1ccccc1)OCC (centres undefined) as the compound, how does the inhibition read?
A: inactive: 6.29%

Q: For O=P1(Nc2ccccn2)COc2ccccc2OC1, which inhibition is on record?
A: inactive: 27.4%

Q: With CCC1=CC2Cc3nc4ccc(Cl)cc4c(N)c3C(C1)C2 (centres undefined) as the compound, how does the inhibition read?
A: inactive: 43.8%

Q: With CC(C)(C)C(=O)NC(Sc1ncccn1)C(Cl)(Cl)Cl (centres undefined) as the compound, how does the inhibition read?
A: inactive: 6.99%

Q: For Clc1n[nH]nc1-c1nn[nH][15n]1, which inhibition is on record?
A: inactive: 4.7%

Q: For CC(C)C(=O)NC(Sc1ccccc1)C(Cl)(Cl)Cl (centres undefined), which inhibition is on record?
A: inactive: -4.83%

Q: Which inhibition does the source give for O=P(Nc1nccs1)(c1ccccc1)c1ccccc1 here?
A: inactive: -36.7%

Q: Which inhibition does the source give for c1nnnn1CCn1cnnn1 here?
A: inactive: -2.12%

Q: Which inhibition does the source give for O=[N+]([O-])c1ccc(O)c(/C=N/Nc2ccc([N+](=O)[O-])cc2[N+](=O)[O-])c1 here?
A: inactive: 35.1%

Q: Which inhibition does the source give for CC(=O)NC(SC(=S)N(C)C)C(Cl)(Cl)Cl (centres undefined) here?
A: active: 88.3%

Q: For O=[N+]([O-])c1ncn(CCn2cnc([N+](=O)[O-])n2)n1, which inhibition is on record?
A: inactive: -0.34%

Q: With O=[As](O)(c1ccccc1)c1ccc(O)cc1 as the compound, how does the inhibition read?
A: inactive: -5%

Q: For Nc1ccc([As](=O)(O)c2ccc([N+](=O)[O-])cc2)cc1, which inhibition is on record?
A: inactive: -5.56%

Q: Which inhibition does the source give for C(Cc1nn[nH]n1)Cc1nn[nH]n1 here?
A: inactive: -0.23%

Q: Which inhibition does the source give for O=C(OC1CN2CCC1CC2)c1cccc(Cl)c1 (centres undefined) here?
A: inactive: 6.74%

Q: With COc1ccc(N)c([N+](=O)[O-])c1[N+](=O)[O-] as the compound, how does the inhibition read?
A: inactive: 6.1%

Q: For O=P(Nc1ccccn1)(c1ccc(Br)cc1)c1ccc(Br)cc1, which inhibition is on record?
A: inactive: -1.73%

Q: Which inhibition does the source give for CN(C)C1(CNC(=O)c2ccc(Cl)c(S(N)(=O)=O)c2)CCCCC1 here?
A: inactive: 16.2%

Q: Which inhibition does the source give for C[C@H]1OP(=O)(Oc2ccccc2)[C@H](O)[C@H](O)[C@H]1N=[N+]=[N-] (some centres undefined) here?
A: inactive: -4.25%

Q: For O=P(Nc1nc2ccccc2s1)(c1ccccc1)c1ccccc1, which inhibition is on record?
A: inactive: -2.37%

Q: For CC(=O)NC(SC(=S)N(CC(C)C)CC(C)C)C(Cl)(Cl)Cl (centres undefined), which inhibition is on record?
A: inactive: 11.2%

Q: Which inhibition does the source give for Cc1ccc(OP(=O)(Nc2ccccn2)Oc2ccc(C)cc2)cc1 here?
A: inactive: 4.91%

Q: For COC(=O)c1cc2c(s1)N=C(c1ccccc1)N(C)P2(=O)N1CCOCC1 (centres undefined), which inhibition is on record?
A: inactive: 1.59%

Q: For CCC(=O)N1C2C3N(C(=O)CC)C1C1N(C(=O)CC)C(C(N1C(=O)CC)N3C(=O)CC)N2C(=O)CC, which inhibition is on record?
A: inactive: -24.7%

Q: Which inhibition does the source give for O=C(OC1CN2CCC1CC2)c1ccccc1 (centres undefined) here?
A: inactive: 15.6%

Q: For CN(C)C(=O)Oc1noc2ccccc12, which inhibition is on record?
A: inactive: 2.82%

Q: With O=c1c2cc([N+](=O)[O-])ccc2[nH]c2c([N+](=O)[O-])cc([N+](=O)[O-])cc12 as the compound, how does the inhibition read?
A: inactive: 26.4%

Q: Which inhibition does the source give for Cc1ccccc1OP(=O)(Nc1ccccn1)Oc1ccccc1C here?
A: inactive: -4.21%

Q: With CC(NC(=O)COC(=O)C(O)(c1ccccc1)c1ccccc1)c1ccccc1 (centres undefined) as the compound, how does the inhibition read?
A: inactive: 4.38%

Q: Which inhibition does the source give for CCNC(=S)/N=C(\N)N[N+](=O)[O-] here?
A: inactive: 0.08%

Q: With O=C(NC1CCS(=O)(=O)C1)NP(=S)(Oc1ccccc1)Oc1ccccc1 (centres undefined) as the compound, how does the inhibition read?
A: inactive: 0.88%

Q: Which inhibition does the source give for Cc1ccc(NP(=O)(Oc2cccc(C)c2)Oc2cccc(C)c2)nc1 here?
A: inactive: 5.89%

Q: For c1ccc(-c2nn[nH]n2)c(-c2nn[nH]n2)c1, which inhibition is on record?
A: inactive: -3.02%

Q: For O=P1(N(CCCl)CCCl)OCCC2CCCCN21 (centres undefined), which inhibition is on record?
A: inactive: 7.29%

Q: Which inhibition does the source give for COC(=O)C1(C)COP(=O)(NCc2ccccc2)OC1 (centres undefined) here?
A: inactive: -16.3%

Q: Which inhibition does the source give for N#C/C(=C\c1ccc(N(CCBr)CCBr)cc1)C(N)=O here?
A: active: 75.1%
